Consider one substance from publication PMC6503841 (Nature chemical biology, 2018).

This assay has as its target T1, AF9 YEATS (Homo sapiens, UniProt P42568).
T1 sequence (P42568 1-138): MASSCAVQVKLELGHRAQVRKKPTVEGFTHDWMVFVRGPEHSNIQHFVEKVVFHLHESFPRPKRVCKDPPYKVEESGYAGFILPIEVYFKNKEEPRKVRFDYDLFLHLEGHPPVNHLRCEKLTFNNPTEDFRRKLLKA
Kind of assay: competitive photo-cross-linking assay. The class given is binding. As to conditions: result in words.

As for “XL-07a: dipeptide with the RK signature motif, 2-furancarbonyl lysine series”, the inhibitory effect result is “significantly reduced inhibitory activity”.
